# In patent US9278947B2 (dated 2016):
# Where two headings read alike, the source gives them in different places.
# Tested on: human platelets
# Conditions: 100 μM compound, 15 min pre-incubation, 1.25 μM ADP + 50 μM serotonin, 5 min
# [1] = FIG. 6 repeat, same donor (PBS control 91.8%)
SMILES,"platelet aggregation reached, % of the maximal possible aggregation (FIG. 5 (PBS control 85.1%)) [%]","platelet aggregation reached, % of the maximal possible aggregation [1] [%]"
"CN(C)CCCC1(c2ccc(F)cc2)OCc2cc(C#N)ccc21 (stereo not shown) [Citalopram, 1-(3-Dimethylamino-propyl)-1-(4-fluoro-phenyl)-1,3-dihydro-isobenzofuran-5-carbonitrile]",23.1,28.7
C[N+](C)(C)CCCC1(c2ccc(F)cc2)OCc2cc(C#N)ccc21 (stereo not shown) [NMC],20.2,22.9
